The target in experiment [1] is Nuclear receptor ROR-gamma (Homo sapiens, UniProt P51449). In words: Agonist activity at APC-labeled RORgammat LBD (unknown origin) incubated for 1 hr in presence of europium-labeled co-activator SRC1 by FRET assay relative to control. The settings on record: filed as agonist.
A further experiment deals with Mus musculus. Nature of the experiment: Antiinflammatory activity against imiquimod-induced psoriasis BALB/c mouse model assessed as body weight loss at 0.02 % applied topically once daily for 12 days. The class given is functional, organism-based. The settings on record: time 12.0 day.

The chains behind the UniProt entries cited, without tags or fusion partners. Where a name states a change or a piece, a line headed by the entry shows the natural chain unless it says otherwise.
UniProt P51449: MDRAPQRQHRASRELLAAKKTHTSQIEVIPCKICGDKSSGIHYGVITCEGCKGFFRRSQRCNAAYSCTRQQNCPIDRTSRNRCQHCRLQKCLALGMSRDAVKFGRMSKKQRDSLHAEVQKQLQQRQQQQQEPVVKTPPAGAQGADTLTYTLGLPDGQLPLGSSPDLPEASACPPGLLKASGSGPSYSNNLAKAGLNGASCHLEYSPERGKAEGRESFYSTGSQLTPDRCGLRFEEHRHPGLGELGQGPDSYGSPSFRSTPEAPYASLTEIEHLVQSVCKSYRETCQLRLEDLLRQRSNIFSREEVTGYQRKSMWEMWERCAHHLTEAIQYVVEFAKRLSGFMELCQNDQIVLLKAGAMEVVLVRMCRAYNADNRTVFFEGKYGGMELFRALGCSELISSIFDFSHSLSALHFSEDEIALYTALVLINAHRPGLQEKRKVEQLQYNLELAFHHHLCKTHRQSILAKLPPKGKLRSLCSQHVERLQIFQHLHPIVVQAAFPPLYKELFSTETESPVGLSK

Activity calls are given as the source filed them. No cut-off for these calls is given here.

In the case of `CC(=O)N1CCN(c2ccc3c(c2)CCCN3S(=O)(=O)N(C)CCc2ccccc2)CC1`, the Efficacy in experiment [1] came out at 41%. As for `CC(=O)N1CCN(c2ccc3c(c2)CCCN3S(=O)(=O)c2ccccc2)CC1`, the Efficacy in experiment [1] came to 83.5 µM.

As to `C[C@H]1C[C@H]2[C@@H]3CCC4=CC(=O)C=C[C@]4(C)[C@@]3(F)[C@@H](O)C[C@]2(C)[C@@]1(O)C(=O)CCl`, the outcome in the experiment with Mus musculus was inactive.

(Values after ChEMBL document CHEMBL4706491, “Discovery of novel N-sulfonamide-tetrahydroquinolines as potent retinoic acid receptor-related orphan receptor γt inverse agonists for the treatment of autoimmune diseases” (Eur J Med Chem, 2020).)
